RXFP1 agonist: activates the human relaxin receptor RXFP1; AID 2676; 370,000 compounds, 0.3% hits; Q9HBX9; HEK293T-RXFP1 cAMP TR-FRET, 30 min; response scale: percent of porcine relaxin response, buffer zero; Potency, µM (titrated, usually from 57.5 µM), without a hit: top-dose activation, actives largely listed as activators; further: potency means the concentration at half of the fitted maximal effect; on the % scale 0 is the no-effect control and ±100 the full control effect; nearly all actives have a fitted effect of over 60% in size
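Agonist response is measured as cAMP accumulation in an RXFP1-transfected HEK293T line under PDE4 inhibition. Values are scaled between buffer-only and 29 nM porcine relaxin, and EC50s come from standard Hill equation fits.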
miR-21 reporter: raises the signal of a miR-21 reporter | HeLa miR-21 FLuc reporter, luciferase, 48 h | Potency, µM (highest dose often 38.3 µM), for inactives: at the highest dose reporter change, positive = more light | 340,000 tested, under 10 active | AID 2288; active = well fitted rising curve with a large enough effect; inconclusive = small, poorly fitted or top-dose-only effect; inactive = no such curve, though single readings can be large or run the other way;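 also: % of control where 0% means no effect; miR-21 action dims this reporter so a rising signal means less miR-21 action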
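Compounds were titrated across several concentrations (up to approximately 40 uM) and incubated 48 hours with HeLa miR-21-FLuc reporter cells (miR-21 target sequence downstream of FLuc, endogenous miR-21). Readout was firefly luciferase luminescence after lytic detection reagent.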
RXFP1 antag: RXFP1 (human) relaxin receptor antagonism | HEK293-RXFP1, relaxin-stimulated cAMP HTRF, 30 min; active compounds read low | activity change, negative = inhibition, % at 57.5 µM | 350,000 compounds, 0.59% hits | Q9HBX9;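 active means activity change of -60% or lower, but not beyond a set lower limit; inconclusive means change between -60% and -40%, or beyond the set limit; inactive means change above -40%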; further: on the % scale 0 is the no-effect control and ±100 the full control effect
IL2 activator: activators of IL-2; AID 652025; 360,000 compounds, 0.065% hits; IL-2 activation reporter assay, cell-based qHTS; stimulated with anti-CD3/CD4/CD28 beads; in transgenic mouse T cells; activation, % (series mostly up to about 46 µM); in the data active means activation above about 50%; inconclusive means mostly about 30% to 49%; further: 0% is about no effect
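Readout: EGFP and DsRed signals by fluorescent plate cytometry. Unstimulated transgenic mouse T cells received compound 60 min before antibody-bead stimulation, then incubated 18 h at 37 degrees C.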
TCR act: T cell receptor activation; primary human leukocytes, anti-CD3, IL-2 HTRF, 48 h; Potency, µM (titrated, usually from 9.22 µM), inactives show at the highest dose activation of IL-2 secretion, hits mostly activators; 330,000 tested, under 10 active; AID 504894; further: % of control where 0% means no effect
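1) Mix primary human leukocytes, a-CD3 beads and compound. 2) Incubate 48 hr. 3) Add HTRF IL-2 reagents (a-IL-2-K, a-IL-2-d2).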
PINK1 modulator: modulators of PINK1 expression | PINK1 immunofluorescence, high-content cytometry, 24 h | Potency, µM (doses to about 76.6 µM), for the others: at the top dose activation (PINK1 increase), actives largely listed as activators | 410,000 compounds, 0.2% hits; active means well fitted activation curve with a large enough effect; inconclusive means small, poorly fitted or top-dose-only effect; cell line not stated here; further: potency means the concentration at half of the fitted maximal effect; % of control where 0% means no effect; nearly all actives have a fitted effect of over 65% in size
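Fluorescence from anti-PINK1 antibody, together with nuclear and cell stains, was scanned on a laser-scanning cytometer. Before staining, stable-line cells were incubated 24 hours with compounds at 5 concentrations; primary antibody 12 h at 10 degrees C.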
Active calls of the source: *; u = inconclusive; x = no result; ! = a repeat was not active; [ ] = dose if it differs, or a comment. This is a sample that favours compounds with a hit; in the whole collection about 0.78% have one here. Unless noted, the call rests on the fitted dose curve; in most records, active means well fitted curve in the direction sought with a large enough effect; inconclusive means small, poorly fitted or top-dose-only effect, or another doubt; inactive means no such curve, though single readings can be large; an effect the other way counts as inactive or inconclusive.

SMILES	RXFP1 agonist	miR-21 reporter	RXFP1 antag	IL2 activator	TCR act	PINK1 modulator
Cc1ccc(NC(=O)Cn2c(=O)n(CCCCCC(=O)NCc3ccc(F)cc3)c(=O)c3sccc32)c(C)c1	26%	8%	6	x	x	1%
Cc1ccc(CNC(=O)CCCCCn2c(=O)c3sccc3n(CC(=O)Nc3ccc(C)c(F)c3)c2=O)cc1	32µM*	-9%	-4	x	x	3%
CN(C)CCC1(C2=CCCC2)CC/C(=C/c2ccc(Cl)cc2)C1=O (stereo not given)	x	x	-73*	-1	1%	-2%
CN(C)CC1CCC/C(=C\c2ccc(OC(=O)c3ccc(Cl)cc3)cc2)C1=O (stereo not given)	x	x	-12	-7	-3%	-7%
COCc1c(C(=O)N2CC3CCC2C3)cnn1-c1nccc(-c2ccccc2OC)n1 (stereo not given)	x	x	x	x	x	1%
NS(=O)(=O)c1ccc(CCNC(=O)C2CCC(Cn3c(=S)[nH]c4ccccc4c3=O)CC2)cc1 (stereo not given)	5%	4%	-69*	-3	-6%	2%
NS(=O)(=O)c1ccc(CCNC(=O)C2CCCCC2)cc1	-4%	1%	4	-2	-3%	16%[38.3 µM]
Cn1c(CCCOc2ccc(Cl)cc2Cl)nnc1SCC(=O)Nc1nccs1	1%	-2%	11	5	x	13µM*
CCOC(=O)N1CCN(Cc2ccc3c(c2)CN(C(=O)c2noc4c2CCCC4)CCO3)CC1	x	x	x	x	x	1%
CC(CCc1ccc(O)cc1)N1CCOc2c(O)cc(-c3nc4ccccc4s3)cc2C1 (stereo not given)	x	x	x	x	x	2%
COc1ccc(CC(=O)Oc2ccccc2C)cc1	3%	0%	-1	-3	-3%	4%
CCC(=O)c1ccc(OC(=O)Cc2ccc(OC)cc2)cc1	-1%	-4%	-113*	2	-1%	0%
CC(O)(COc1ccccc1)c1ccc2c(c1)CN(Cc1ccccn1)CCO2 (stereo not given)	x	x	x	x	x	-1%
CCn1nc(C)c(C(=O)Nc2cc(Oc3ccc(Cl)cc3)cc([N+](=O)[O-])c2)c1C	1%	19%	-11	-2	x	10µM*
O=C(Nc1nnc(C2=COCCO2)o1)c1ccc(Cc2ccccc2)cc1	0%	-1%	-65*	0	-4%	1%
O=C(Nc1nnc(C2=COCCO2)o1)c1ccc(Cl)cc1	0%	-14%	-4	-2	2%[46.1 µM]	4%
Cc1ccc2nc(C)c(C(=O)N/N=C/c3ccc(C(=O)O)cc3)cc2c1	-2%	-1%	-62*	-1	1%	-3%
Cc1nc2c(C)cccc2cc1C(=O)N/N=C/c1ccc(O)cc1	2%	24%	16	2	1%[46.1 µM]	2%
CCOC(=O)c1ccc(NC(=O)C2CCCN(c3cnccn3)C2)cc1 (stereo not given)	-2%	-34%	-61*!	-1	-2%	0%
O=C(COC(=O)/C=C/c1ccc(Cl)cc1)NC(=O)NCc1ccccc1	1%	x	-61*	-1	-2%	6%
O=[N+]([O-])c1cc(S(=O)(=O)Nc2cccc(C(F)(F)F)c2)ccc1-n1nnc2ccccc21	0%	12%	x	6	-1%	22µM*
COc1ccc(NS(=O)(=O)c2ccc(-n3nnc4ccccc43)c([N+](=O)[O-])c2)cc1	0%	1%	-19	-3	x	u
NC(=O)NS(=O)(=O)c1ccc(Cl)cc1	x	x	10	x	x	x
CCCOC(=O)c1c(-c2ccccc2)c(-c2ccccc2)nn(C)c1=O	2%	u	-65*	x	x	-1%
CC(=O)N1CCOc2ccc(S(=O)(=O)NCCc3ccc(Cl)cc3)cc21	0%	3%	-68*	-2	9%	0%
CC[n+]1ccccc1/C=C1\Sc2ccc(C)cc2N1C	-1%	29%	-2	-1	8%	16µM*

A second format for part of the listing above:
SMILES | RXFP1 agonist | miR-21 reporter | RXFP1 antag | IL2 activator | TCR act | PINK1 modulator
CN(C)CC1CCC/C(=C\c2ccc(OC(=O)c3ccc(Cl)cc3)cc2)C1=O (stereo not given) | x | x | -12 | -7 | -3% | -7%
COCc1c(C(=O)N2CC3CCC2C3)cnn1-c1nccc(-c2ccccc2OC)n1 (stereo not given) | x | x | x | x | x | 1%

Exported with values ahead of the structure: part of the list above
RXFP1 agonist | miR-21 reporter | RXFP1 antag | IL2 activator | TCR act | PINK1 modulator | compound
x | x | 10 | x | x | x | NC(=O)NS(=O)(=O)c1ccc(Cl)cc1
2% | u | -65* | x | x | -1% | CCCOC(=O)c1c(-c2ccccc2)c(-c2ccccc2)nn(C)c1=O
